Experimental data from patent US20160106813A1 (CENTRE NATIONAL DE LA RECHERCHE SCHIENTIFIQUE (CNRS), priority 2013, published 2016).

Columns and labels:
[1] = tested on: HIV-1 JRCSF; assay: HIV-1 content in lysates of HIV-1-pulsed Langerhans cells (HIV-1 degradation), p24 ELISA; type: cell-based; conditions: CGRP 100 nM, 24 h pretreatment
Excerpt: The cells were then lysed with NP40 for HIV-1 degradation measurement by p24 ELISA (Innotest; Innogenetics, Gent, Belgium).

[2] = tested on: langerin; assay: Langerin surface expression on MDLCs by flow cytometry; type: cell-based, human; conditions: CGRP 100 nM, 24 h
Experimental: Flow cytometry for langerin surface expression was performed with a PE-conjugated mouse-anti-human langerin mAb (Beckman Coulter, Marseille, France). Each step was performed for 30 min on ice at 500/well.

[3] = tested on: HIV-1-infected cells; assay: Inner foreskin explants exposed to HIV-1-infected cells: LC-TC conjugate formation and mucosal TC infection, flow cytometry; type: cell-based; conditions: 100 nM CGRP 24 h pretreatment, 4 h exposure
Experimental: FIG. 3: LC-TC conjugate formation and mucosal TC infection. […] Shown are representative FACS profiles with numbers representing the mean±s.e.m. (n=3) percentages within the entire cell-suspensions of either CD3+/CD1a+/high FSC LC-T-cell conjugates (top, epidermis) or CD3+/p24+ cells (bottom, dermis).
Inner foreskin explants were prepared, inoculated with HIV-1-infected PBMCs and processed for flow cytometry, as described (Zhou, et al.; PLoS Pathog 7:e1002100.).

[4] = tested on: CGRP; assay: CGRP secreted by MDLCs to culture supernatants, CGRP ELISA; type: cell-based, human; conditions: 100 nM CGRP 24 h pretreatment, washed, fresh medium 24 h
Experimental: The cells were then washed extensively and cultured in fresh medium for additional 24 h. The levels of CGRP secreted to the culture supernatants were measured by CGRP ELISA. Results represent mean±SEM from n=2 human donors. * p=0.0061 for CGRP-treated vs untreated; Student's t-test.

[5] = tested on: CD29, CD49e and CD50; assay: Surface expression of integrins on Langerhans cells; type: cell-based

SMILES: CC(C)C[C@H](NC(=O)CNC(=O)[C@H](C)NC(=O)[C@H](CC(C)C)NC(=O)[C@H](CCCNC(=N)N)NC(=O)[C@H](Cc1c[nH]cn1)NC(=O)[C@@H](NC(=O)[C@@H](NC(=O)[C@@H]1CSSC[C@H](NC(=O)[C@H](C)N)C(=O)N[C@@H](CC(=O)O)C(=O)N[C@@H]([C@@H](C)O)C(=O)N[C@@H](C)C(=O)N[C@@H]([C@@H](C)O)C(=O)N1)C(C)C)[C@@H](C)O)C(=O)N[C@@H](CC(C)C)C(=O)N[C@@H](CO)C(=O)N[C@@H](CCCNC(=N)N)C(=O)N[C@@H](CO)C(=O)NCC(=O)NCC(=O)N[C@H](C(=O)N[C@H](C(=O)N[C@@H](CCCCN)C(=O)N[C@@H](CC(N)=O)C(=O)N[C@@H](CC(N)=O)C(=O)N[C@@H](Cc1ccccc1)C(=O)N[C@H](C(=O)N1CCC[C@H]1C(=O)N[C@H](C(=O)N[C@@H](CC(N)=O)C(=O)N[C@H](C(=O)NCC(=O)N[C@@H](CO)C(=O)N[C@@H](CCCCN)C(=O)N[C@@H](C)C(=O)N[C@@H](Cc1ccccc1)C(N)=O)C(C)C)[C@@H](C)O)C(C)C)C(C)C)C(C)C [CGRP]
- total HIV-1 content in cell lysates [1]: decrease
- langerin surface expression [2]: increase
- TCs infection mediated by HIV-1-infected cells (CD3+p24+ cells) [3]: abrogated
- increase in LC-TC conjugate formation mediated by HIV-1-infected cells [3]: abrogated
- CGRP secretion by MDLCs [4]: significant increase
- surface expression of several integrins (CD29, CD49e and CD50) [5]: decreasing
